Test results: patent publication US10898481B2 (priority 2018, dated 2021)

The chains behind the UniProt entries cited, without tags or fusion partners. Where a name states a change or a piece, a line headed by the entry shows the natural chain unless it says otherwise.
UniProt P29275: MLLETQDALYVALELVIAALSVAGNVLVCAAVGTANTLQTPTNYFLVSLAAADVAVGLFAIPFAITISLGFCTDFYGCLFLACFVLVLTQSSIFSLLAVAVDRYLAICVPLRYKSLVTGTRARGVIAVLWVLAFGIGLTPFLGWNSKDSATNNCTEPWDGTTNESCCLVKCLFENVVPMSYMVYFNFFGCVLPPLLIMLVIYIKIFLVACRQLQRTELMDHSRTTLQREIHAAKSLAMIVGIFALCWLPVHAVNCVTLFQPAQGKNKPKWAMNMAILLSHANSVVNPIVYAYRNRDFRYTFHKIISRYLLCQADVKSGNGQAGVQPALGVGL

Key:
hA2a = hA2a (Homo sapiens (Human), UniProt P29274); test: Radioligand binding to hA2a membrane with [3H]-CGS21680; conditions: read-out: Binding Affinity (IC50 nM) hA2a
Excerpt: (§1) The empty boxes in the tables below indicate data not collected yet.

hA2b = hA2b (Homo sapiens (Human), UniProt P29275); test: Radioligand binding to hA2b membrane with [3H]-DPCPX; conditions: read-out: Binding Affinity (IC50 nM) hA2b
Excerpt: as §1

Cc1cc(-c2nc(C(=O)NCc3ccccc3OC(F)(F)F)c(N)nc2-c2ccc(F)cc2)cc(C)n1 [Example 65, 3-amino-6-(2,6-dimethylpyridin-4-yl)-5-(4-fluorophenyl)-N-(2-(trifluoromethoxy)benzyl)pyrazine-2-carboxamide]
IC50 (hA2a): 13 nM | IC50 (hA2b): 4420 nM
